# According to PubChem BioAssay AID488 (PCMD, 2006):
# The list shows a part of the results, in another mix than the full data. Calls of active or inactive are those of the source. No stated cut-off is given here; in the data, active means inhibition above about 22% (passing the limit was not always enough); inconclusive means no clear call, values can overlap the other calls.
# Target: Cathepsin B (Homo sapiens) (UniProt P07858)
# Test: cathepsin B inhibitors from pooled compounds, primary screen, biochemical, compound mixtures, AMC fluorescence (AID 488);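 further: 0% = enzyme without compound and 100% = no enzyme blank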
# Conditions: Purified cathepsin B, AMC dipeptide fluorescence, active compounds read high,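 ten-compound pools at 5 µM per compound and 50 µM total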
row,SMILES,inhibition
1,COc1ccccc1OP(C)(=O)Nc1c(C)n(C)n(-c2ccccc2)c1=O (stereo not drawn),inactive: 3.88%
2,CP(=O)(Oc1ccccc1)N1CCOC1=O (stereo not drawn),inactive: 3.1%
3,CCN(CC)CC(O)COC(=O)C(O)(c1ccccc1)C1CCCCC1 (stereo not drawn),inactive: 4.15%
4,CP(=O)(Nc1ccccn1)Oc1ccccc1 (stereo not drawn),inactive: 2.12%
5,Cc1nc2ccc3ccccc3c2o1.O=[N+]([O-])c1cc([N+](=O)[O-])c(O)c([N+](=O)[O-])c1,inactive: -0.48%
6,COc1ccccc1OP(C)(=O)Nc1ccc(C)c(C)c1 (stereo not drawn),inactive: 5.11%
7,CP(=O)(Nc1ccccc1F)Oc1ccccc1 (stereo not drawn),inactive: 2.72%
8,Cc1ccccc1NP(C)(=O)Nc1ccccc1C,inactive: -3.69%
9,CP(=O)(Nc1ccc2c(c1)OCCO2)Oc1ccccc1 (stereo not drawn),inactive: 4.44%
10,CCOP(C)(=S)SCC(=O)NC(C)(CC)C(=O)O (stereo not drawn),inactive: 7.22%
11,CN(C)CCOC(=O)C(O)(c1ccccc1)C1CCCCC1 (stereo not drawn),inactive: 2.61%
12,Cc1nc2ccc3ccccc3c2s1.O=[N+]([O-])c1cc([N+](=O)[O-])c(O)c([N+](=O)[O-])c1,inactive: 3.29%
13,Cc1ccc(C)c(NP(C)(=O)Oc2ccccc2)c1 (stereo not drawn),inactive: -1.15%
14,COc1ccccc1OP(C)(=O)Nc1ccc(C)cc1 (stereo not drawn),inactive: 1.14%
15,Cc1ccc(NP(C)(=O)Oc2ccccc2)c(C)c1 (stereo not drawn),inactive: -0.385%
16,CCOP(C)(=S)SCC(=O)NC(C)C(=O)O (stereo not drawn),inactive: 5.24%
17,CP(=O)(NC(=O)Nc1ccccc1)Oc1ccccc1 (stereo not drawn),inactive: -1.77%
18,CP(=S)(Nn1cnnc1)Oc1ccccc1 (stereo not drawn),inactive: 2.62%
